From publication PMC4771821, “Structural and spectroscopic characterisation of a heme peroxidase from sorghum” (Journal of Biological Inorganic Chemistry, 2015)
pKd: −log10 of the molar value.

Protein sequences, listed by entry. Tags and fused reporters are not part of them. Residues count along the entry.
UniProt P84516, 32-362 limits assumed: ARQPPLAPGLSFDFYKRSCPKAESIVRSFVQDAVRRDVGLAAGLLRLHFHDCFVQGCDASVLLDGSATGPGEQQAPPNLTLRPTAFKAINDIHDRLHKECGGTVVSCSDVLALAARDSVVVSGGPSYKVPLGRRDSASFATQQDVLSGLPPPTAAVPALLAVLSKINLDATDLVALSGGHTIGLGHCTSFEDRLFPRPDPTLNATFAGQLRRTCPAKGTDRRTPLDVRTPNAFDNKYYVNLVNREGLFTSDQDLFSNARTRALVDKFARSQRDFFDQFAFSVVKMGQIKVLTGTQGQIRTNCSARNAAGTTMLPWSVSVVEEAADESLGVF

Target: SK 5912 sorghum peroxidase (cationic class III peroxidase) (Sorghum bicolor, UniProt P84516)
Experiment: equilibrium binding titration by UV-visible spectroscopy

Question: How did the pKd turn out when `[N-]=[N+]=N` was run?
Answer: 4.72
